Screens deposited in PubChem by Broad Institute.
Rows were chosen to be rich in hits. Some 1.2% of all compounds tested hit in one or more screens of this group.
Yeast UUG start: modulators of yeast start codon fidelity, primary screen, whole organism, S. cerevisiae, single point, plate reader | AID 602363, 2012 | S. cerevisiae UUG-firefly luciferase reporter, luminescence/redox ratio | activity score, % at 18.7 µM | hit rate 0.13% among 350,000;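 active = replicate mean at a twofold rise or more, about +100% in these data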;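 also: firefly luciferase made from a UUG start codon reports start codon fidelity; reporter light over untreated wells divided by growth signal over untreated wells; some hits fall short of that in this replicate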
miR-122 sensor: miR-122 Renilla sensor signal increase in Huh7, primary screen, miR-122 inhibitor project, cell-based, single point, plate reader. Huh7 miR-122 Renilla luciferase sensor, 48 h; neutral wells = 0, positive control = 100. activation (reporter increase), % at 12.5 µM. 0.3% of 340,000 active;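 active means mean replicate activation score at least 90 and every replicate individually at or above 90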;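 further: higher luciferase means less miR-122 activity so hits act as miR-122 inhibitors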
Cneo AK release: Cryptococcus neoformans cell lysis inducers, primary screen, AK release luminescence, single concentration; C. neoformans lysis, adenylate kinase release luminescence, 4 h; normalised: neutral wells 0, clomiphene wells 100; lysis activity, % at 15 µM; 0.2% of 360,000 active; AID 651654, 2012;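 active means mean lysis activity across replicates of at least 80%, whatever share of replicates individually reach that level; inactive means mean lysis activity below 80%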
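Assay system: log-phase C. neoformans yeast / Quantity: yeast cell density of 5 × 10^6 cells/mL / Medium: fresh YPD growth medium / Compound: single dose / Timing: static 4 h at 37 °C with compound, 1 h detection / Measured by: adenylate kinase release luminescence / Read-out: lysis from increased AK signal / Benchmarks: Clomiphene as positive lysis control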
Statin myotox sup: suppressors of statin myotoxicity in C2C12 myotubes, primary screen, cell-based, single point, plate reader | C2C12 myotubes + simvastatin, ATP luminescence, 48 h; scaled: DMSO 0, geranylgeraniol control 100 | 0.78% of 330,000 active | AID 602340, 2012 | rescue of ATP level, % at 7.49 µM;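 active means mean ATP rescue above about 67%, or every replicate alone reaching that limit, limit read from the data, passing the limit was not always enough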;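 further: myotubes were challenged with 10 µM simvastatin during compound exposure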
A number is an active result; i = inactive; nt = no result given; [ ] = dose if it differs, or a comment.

SMILES	Yeast UUG start	miR-122 sensor	Cneo AK release	Statin myotox sup
Cc1ccc(S(=O)(=O)Nc2cccc3c2O[C@H](CN(C)Cc2ccc(C(=O)Nc4ccccc4N)cc2)[C@H](C)CN([C@H](C)CO)C3=O)cc1	i	188.6[16.7 µM]	i	i
C[C@H]1CN([C@@H](C)CO)C(=O)Cc2cc(NC(=O)Nc3ccc(C(F)(F)F)cc3)ccc2O[C@H]1CN(C)C(=O)NC1CCCCC1	i	i	i	i
COCCNC(=O)c1c(CSc2ccccc2)noc1C(=O)NCc1ccccc1	i	i	i	i
COCCNC(=O)c1c(CS(=O)(=O)c2ccccc2)noc1C(=O)NCc1ccccc1	i	i	i	96.4
O=C(O)CCCC(=O)Nc1ccccc1Br	i	i	i	71.3
O=C(C[C@H]1CC[C@H]2[C@@H](COC[C@@H](O)CN2C(=O)Nc2ccc(F)cc2)O1)NC1Cc2ccccc2C1	i	i	i	i
C[C@@H]1CN([C@@H](C)CO)C(=O)Cc2cc(NC(=O)CCC(F)(F)F)ccc2O[C@H]1CN(C)Cc1ccc(Oc2ccccc2)cc1	i	i	i	86.9
C[C@H](CO)N1C[C@H](C)[C@H](CN(C)Cc2ccncc2)Oc2ccc(NC(=O)CCC(F)(F)F)cc2C1=O	i	i	149.1	i
C[C@@H]1CN([C@@H](C)CO)C(=O)c2cc(NC(=O)CCC(F)(F)F)ccc2O[C@@H]1CN(C)Cc1ccncc1	i	i	i	i
COc1ccc(CN(C)C[C@@H]2Oc3ccc(NC(=O)CCC(F)(F)F)cc3CC(=O)N([C@H](C)CO)C[C@H]2C)cc1	i	i	i	102.3
C[C@@H]1CCCCO[C@H](CN(C)C(=O)Nc2ccc3c(c2)OCO3)[C@H](C)CN([C@H](C)CO)C(=O)c2cc(NS(=O)(=O)c3ccccc3)ccc2O1	i	i	i	nt
CC(=O)OC1CC(n2ccc(NC(=O)c3ccccc3)nc2=O)OC1CO (centres undefined)	i	i	i	128.0
Nc1ccn([C@H]2C[C@H](O)[C@@H](CO)O2)c(=O)n1	i	i	i	i
COc1ccc(NC(=O)Cn2cnc3c(cnn3-c3ccc(C)c(C)c3)c2=O)c(OC)c1	i	nt	i	i
CC(C)(C)n1ncc2c(=O)n(CC(=O)c3ccc(Cl)cc3)cnc21	i	i	i	i
O=c1c2cnn(-c3ccc(F)cc3)c2ncn1Cc1ccccc1	i	i	i	158.0
O=c1c2cnn(-c3ccc(F)cc3)c2ncn1Cc1cccnc1	i	i	i	i
O=C(Cn1cnc2c(cnn2-c2ccccc2)c1=O)c1ccc(Cl)cc1	i	i	i	143.3
CCOc1ccccc1NC(=O)Cn1cnc2c(cnn2-c2ccc(C)c(C)c2)c1=O	i	i	i	131.7
C[C@H](CO)N1C[C@H](C)[C@@H](CN(C)C(=O)Nc2ccc(C(F)(F)F)cc2)OCCCC[C@H](C)Oc2ccc(NC(=O)NC3CCCCC3)cc2C1=O	i	i	i	nt
COCCNC(=O)C[C@H]1C[C@@H]2c3cc(NC(=O)Nc4ccccc4F)ccc3O[C@@H]2[C@H](CO)O1	i	i	i	i
COc1ccc(NC(=O)Nc2ccc3c(c2)C(=O)N([C@H](C)CO)C[C@@H](C)[C@H](CN(C)S(=O)(=O)c2ccc(F)cc2)OCCCC[C@@H](C)O3)cc1	i	i	i	nt
O=C(N/N=C/c1cccs1)C(O)c1ccccc1 (centres undefined)	i	197.1	i	i
Cc1cccc(NCCNc2cccc(C)c2)c1	i	nt	i	113.2
Cc1cc(C)c(C)c(S(=O)(=O)Nc2ccc3cn[nH]c3c2)c1C	i	157.5	i	i
SMILES	Yeast UUG start	miR-122 sensor	Cneo AK release	Statin myotox sup
COC(=O)c1ccccc1S(=O)(=O)Nc1ccc2cn[nH]c2c1	i	i	i	i
COC(=O)c1sc(S(=O)(=O)Nc2ccc3cn[nH]c3c2)c(C(=O)OC)c1C	i	i	i	117.2
CCC(=O)c1cc2c(cc1NC(=O)c1ccc(C)cc1)OCCO2	nt	i	nt	i
CCCc1cc2c(cc1NC(=O)c1ccc(C)cc1)OCO2	nt	i	nt	91.5
CCNC(=O)CC(=O)Nc1ccccc1C(=O)O	i	i	i	i
CNC(=O)CC(=O)Nc1ccccc1C(=O)O	i	i	i	104.9
C#Cc1ccc([C@H]2C=C(C(=O)NCc3nc4ccccc4[nH]3)O[C@@H](OCCCCO)C2)cc1	i	nt	i	nt
CC(C)(C)c1ccc(Cn2nnc3c(=O)[nH]c(C4CCN(C(=O)Cc5cccs5)CC4)nc32)cc1	i	i	i	112.3
